Measured values: article PMC8000448, “Inhibitory Effects of Schisandra Lignans on Cytochrome P450s and Uridine 5′-Diphospho-Glucuronosyl Transferases in Human Liver Microsomes” (Pharmaceutics, 2021)
Values joined by “and” are separate entries in the source; they are usually repeats but may differ in a detail not shown here. Identical values can stand only once. Like-named read-outs stand apart in the source and are kept apart here.

Protein sequences, listed by entry. Tags and fused reporters are not part of them. Lines headed by an entry give the natural chain unless they say otherwise; changes in a name come on top.
UniProt P11712, whole entry: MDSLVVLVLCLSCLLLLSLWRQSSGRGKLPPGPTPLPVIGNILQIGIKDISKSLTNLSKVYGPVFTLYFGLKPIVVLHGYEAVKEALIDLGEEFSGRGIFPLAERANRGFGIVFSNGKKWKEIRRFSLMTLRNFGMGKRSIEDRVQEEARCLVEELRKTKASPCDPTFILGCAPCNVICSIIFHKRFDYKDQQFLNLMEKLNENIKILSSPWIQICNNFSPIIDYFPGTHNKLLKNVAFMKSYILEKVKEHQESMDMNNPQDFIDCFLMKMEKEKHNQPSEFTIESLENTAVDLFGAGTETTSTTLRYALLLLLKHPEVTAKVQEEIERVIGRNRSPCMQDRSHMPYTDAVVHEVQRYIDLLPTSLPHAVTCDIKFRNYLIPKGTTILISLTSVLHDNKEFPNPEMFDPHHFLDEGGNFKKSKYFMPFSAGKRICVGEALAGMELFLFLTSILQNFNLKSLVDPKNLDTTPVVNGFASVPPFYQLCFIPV
UniProt P05177, whole entry: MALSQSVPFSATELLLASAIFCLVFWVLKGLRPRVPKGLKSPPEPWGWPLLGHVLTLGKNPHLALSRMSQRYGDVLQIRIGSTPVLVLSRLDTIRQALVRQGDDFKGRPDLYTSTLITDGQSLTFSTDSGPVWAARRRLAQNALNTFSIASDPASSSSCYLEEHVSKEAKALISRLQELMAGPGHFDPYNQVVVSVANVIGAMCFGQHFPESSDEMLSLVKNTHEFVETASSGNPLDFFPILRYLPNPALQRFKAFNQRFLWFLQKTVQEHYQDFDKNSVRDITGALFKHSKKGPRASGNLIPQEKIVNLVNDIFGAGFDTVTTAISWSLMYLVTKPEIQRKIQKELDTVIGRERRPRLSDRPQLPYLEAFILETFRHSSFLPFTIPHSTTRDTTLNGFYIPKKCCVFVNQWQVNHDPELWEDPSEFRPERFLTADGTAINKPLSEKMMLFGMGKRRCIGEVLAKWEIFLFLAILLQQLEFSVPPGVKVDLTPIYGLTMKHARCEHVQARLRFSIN
UniProt P05181: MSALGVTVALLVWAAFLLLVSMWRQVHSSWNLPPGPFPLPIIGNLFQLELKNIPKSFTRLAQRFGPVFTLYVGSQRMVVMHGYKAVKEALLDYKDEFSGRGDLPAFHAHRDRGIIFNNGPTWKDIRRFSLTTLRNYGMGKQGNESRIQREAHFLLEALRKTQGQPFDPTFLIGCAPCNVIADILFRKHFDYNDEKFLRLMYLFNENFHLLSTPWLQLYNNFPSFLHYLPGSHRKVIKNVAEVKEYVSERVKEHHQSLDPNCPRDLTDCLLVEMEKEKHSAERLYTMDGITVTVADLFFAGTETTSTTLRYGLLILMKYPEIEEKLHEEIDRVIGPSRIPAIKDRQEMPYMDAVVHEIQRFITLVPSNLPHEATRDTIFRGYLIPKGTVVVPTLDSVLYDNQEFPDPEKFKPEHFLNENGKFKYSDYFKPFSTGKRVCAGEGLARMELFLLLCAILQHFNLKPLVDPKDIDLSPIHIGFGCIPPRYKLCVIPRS
UniProt P20813: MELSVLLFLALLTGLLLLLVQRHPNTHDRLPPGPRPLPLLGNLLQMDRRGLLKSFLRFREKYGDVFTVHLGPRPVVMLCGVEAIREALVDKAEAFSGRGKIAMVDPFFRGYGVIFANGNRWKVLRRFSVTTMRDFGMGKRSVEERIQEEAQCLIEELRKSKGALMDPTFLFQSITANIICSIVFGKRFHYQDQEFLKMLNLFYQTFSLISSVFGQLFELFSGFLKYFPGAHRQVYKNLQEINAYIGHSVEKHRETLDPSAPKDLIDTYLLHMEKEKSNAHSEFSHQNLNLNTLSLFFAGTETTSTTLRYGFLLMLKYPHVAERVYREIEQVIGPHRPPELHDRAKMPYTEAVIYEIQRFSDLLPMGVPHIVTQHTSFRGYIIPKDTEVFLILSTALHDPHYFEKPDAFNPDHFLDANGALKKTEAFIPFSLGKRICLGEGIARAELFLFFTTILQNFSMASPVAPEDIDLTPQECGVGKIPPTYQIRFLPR
UniProt P33261, whole entry: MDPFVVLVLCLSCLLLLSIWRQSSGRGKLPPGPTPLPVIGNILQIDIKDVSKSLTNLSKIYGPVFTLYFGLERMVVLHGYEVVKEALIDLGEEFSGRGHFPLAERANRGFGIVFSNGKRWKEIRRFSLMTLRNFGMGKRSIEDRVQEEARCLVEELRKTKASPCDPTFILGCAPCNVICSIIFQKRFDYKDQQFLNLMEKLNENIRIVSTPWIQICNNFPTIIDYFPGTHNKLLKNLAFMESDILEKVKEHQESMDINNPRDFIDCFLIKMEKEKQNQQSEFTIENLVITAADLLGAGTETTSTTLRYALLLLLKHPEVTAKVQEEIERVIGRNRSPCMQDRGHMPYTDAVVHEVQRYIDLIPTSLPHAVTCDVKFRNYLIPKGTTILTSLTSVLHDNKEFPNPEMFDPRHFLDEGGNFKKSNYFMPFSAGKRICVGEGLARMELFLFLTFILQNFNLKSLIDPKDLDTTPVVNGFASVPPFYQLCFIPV

Tests used:
[1] = biological target: T1, UGT1A1 (Homo sapiens, UniProt P22309); assay: UGT1A1 inhibition in HLMs (SN-38); assay type: in vitro ADME; settings: average in triplicate, read-out: IC50, UGT 1A1
T1 construct: pooled HLMs (0.25 mg/mL); tissue XenoTech H2630; host or cells: pooled human liver microsomes, mixed gender
T1 sequence (P22309 26-533): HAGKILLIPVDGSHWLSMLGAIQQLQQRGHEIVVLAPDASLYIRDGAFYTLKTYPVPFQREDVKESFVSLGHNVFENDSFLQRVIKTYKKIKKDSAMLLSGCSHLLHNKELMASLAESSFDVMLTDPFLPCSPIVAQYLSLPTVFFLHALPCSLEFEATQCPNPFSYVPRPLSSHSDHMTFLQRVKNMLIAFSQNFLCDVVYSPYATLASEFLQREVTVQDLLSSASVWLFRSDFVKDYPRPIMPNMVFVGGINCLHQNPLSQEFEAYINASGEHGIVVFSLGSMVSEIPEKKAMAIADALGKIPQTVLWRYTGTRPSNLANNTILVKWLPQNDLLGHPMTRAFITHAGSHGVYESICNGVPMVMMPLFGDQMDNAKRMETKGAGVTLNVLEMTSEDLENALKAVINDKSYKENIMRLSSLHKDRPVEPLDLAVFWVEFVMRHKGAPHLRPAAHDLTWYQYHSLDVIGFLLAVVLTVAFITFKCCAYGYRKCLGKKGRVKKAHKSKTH
Procedure: (§1) The inhibitory potential of six lignans on six UGT activities was evaluated using the previously developed cocktail method with slight modifications. […] These substrates are known to be selective for each UGT isoforms.

[2] = biological target: T2, UGT2B7 (Homo sapiens, UniProt P16662); assay: UGT2B7 inhibition in HLMs (naloxone); assay type: in vitro ADME; settings: average in triplicate, read-out: IC50, UGT 2B6 (so in the source)
T2 construct: pooled HLMs (0.25 mg/mL); tissue XenoTech H2630; host or cells: pooled human liver microsomes, mixed gender
T2 sequence (P16662 24-529): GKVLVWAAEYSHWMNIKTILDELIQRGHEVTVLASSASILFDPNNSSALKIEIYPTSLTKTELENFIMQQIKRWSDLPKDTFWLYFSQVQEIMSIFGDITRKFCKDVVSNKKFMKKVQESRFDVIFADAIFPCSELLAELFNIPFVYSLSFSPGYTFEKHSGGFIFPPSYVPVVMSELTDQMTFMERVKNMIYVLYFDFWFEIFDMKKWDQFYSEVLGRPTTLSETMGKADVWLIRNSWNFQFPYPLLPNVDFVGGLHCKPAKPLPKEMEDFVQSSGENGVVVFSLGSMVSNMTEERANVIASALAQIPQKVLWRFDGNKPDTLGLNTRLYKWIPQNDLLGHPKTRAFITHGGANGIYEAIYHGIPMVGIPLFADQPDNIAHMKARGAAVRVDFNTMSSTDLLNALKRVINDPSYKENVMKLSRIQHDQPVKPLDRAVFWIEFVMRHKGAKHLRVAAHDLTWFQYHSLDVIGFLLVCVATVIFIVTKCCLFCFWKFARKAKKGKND
Procedure: as §1

[3] = biological target: CYP2C9 (Homo sapiens, UniProt P11712); assay: CYP2C9 inhibition in HLMs (diclofenac); settings: for IC50 Shift, CYP2C9: RI/TDI fold shift
[4] = biological target: T3, CYP1A2 (Homo sapiens, UniProt P05177); assay: CYP1A2 inhibition in HLMs (phenacetin, cocktail, IC50 and IC50 shift); assay type: in vitro ADME
T3 construct: pooled HLMs (0.25 mg/mL); tissue XenoTech H2630; host or cells: pooled human liver microsomes, mixed gender
Procedure: (§2) Lignans were first dissolved in methanol. […] All microsomal incubations were performed in triplicate.

[5] = biological target: T4, CYP2E1 (Homo sapiens, UniProt P05181); assay: CYP2E1 inhibition in HLMs (chlorzoxazone); assay type: in vitro ADME; settings: for IC50 Shift, CYP2E1: RI/TDI fold shift
T4 construct: pooled HLMs (0.25 mg/mL); tissue XenoTech H2630; host or cells: pooled human liver microsomes, mixed gender
Procedure: as §2

[6] = biological target: T5, CYP2B6 (Homo sapiens, UniProt P20813); assay: CYP2B6 inhibition in HLMs (bupropion); assay type: in vitro ADME
T5 construct: pooled HLMs (0.25 mg/mL); tissue XenoTech H2630; host or cells: pooled human liver microsomes, mixed gender
Procedure: as §2

[7] = biological target: T6, CYP2A6 (Homo sapiens, UniProt P11509); assay: CYP2A6 inhibition in HLMs (coumarin); assay type: in vitro ADME
T6 construct: pooled HLMs (0.25 mg/mL); tissue XenoTech H2630; host or cells: pooled human liver microsomes, mixed gender
T6 sequence (P11509 1-494): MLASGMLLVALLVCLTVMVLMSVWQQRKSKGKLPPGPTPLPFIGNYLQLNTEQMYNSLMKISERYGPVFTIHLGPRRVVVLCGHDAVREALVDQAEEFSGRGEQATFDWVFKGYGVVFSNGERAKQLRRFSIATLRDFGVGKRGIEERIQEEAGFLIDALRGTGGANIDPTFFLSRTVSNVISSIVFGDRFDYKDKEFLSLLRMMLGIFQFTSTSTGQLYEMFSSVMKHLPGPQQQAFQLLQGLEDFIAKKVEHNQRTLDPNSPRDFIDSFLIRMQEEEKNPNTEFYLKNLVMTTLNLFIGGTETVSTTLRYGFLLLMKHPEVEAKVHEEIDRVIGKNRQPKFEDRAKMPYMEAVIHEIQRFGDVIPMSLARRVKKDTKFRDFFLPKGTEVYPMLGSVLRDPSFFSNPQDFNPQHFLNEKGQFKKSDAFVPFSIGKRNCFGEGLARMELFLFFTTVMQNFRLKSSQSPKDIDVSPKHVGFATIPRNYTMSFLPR
Procedure: as §2

[8] = biological target: T7, UGT1A6 (Homo sapiens, UniProt P19224); assay: UGT1A6 inhibition in HLMs (N-acetylserotonin); assay type: in vitro ADME; settings: average in triplicate, read-out: IC50, UGT 1A6
T7 construct: pooled HLMs (0.25 mg/mL); tissue XenoTech H2630; host or cells: pooled human liver microsomes, mixed gender
T7 sequence (P19224 27-532): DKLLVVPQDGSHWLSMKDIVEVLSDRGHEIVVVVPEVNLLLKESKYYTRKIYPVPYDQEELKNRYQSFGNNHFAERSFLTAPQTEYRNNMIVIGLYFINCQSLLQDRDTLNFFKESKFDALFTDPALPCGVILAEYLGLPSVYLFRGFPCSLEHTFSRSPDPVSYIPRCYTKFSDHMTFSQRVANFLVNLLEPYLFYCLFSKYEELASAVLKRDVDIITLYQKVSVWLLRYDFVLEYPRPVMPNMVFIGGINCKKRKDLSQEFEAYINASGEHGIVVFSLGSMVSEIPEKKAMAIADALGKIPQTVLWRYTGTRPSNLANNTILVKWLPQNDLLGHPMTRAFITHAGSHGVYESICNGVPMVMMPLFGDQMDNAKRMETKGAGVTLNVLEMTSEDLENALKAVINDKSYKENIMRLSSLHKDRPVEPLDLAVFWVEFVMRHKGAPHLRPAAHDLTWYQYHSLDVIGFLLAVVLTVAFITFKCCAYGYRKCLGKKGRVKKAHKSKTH
Procedure: as §1

[9] = biological target: CYP2C19 (Homo sapiens, UniProt P33261); assay: CYP2C19 inhibition in HLMs (S-mephenytoin); settings: for IC50 Shift, CYP2C19: RI/TDI fold shift
[10] = read-out: IC50 RI, CYP2C9, reversible inhibition
[11] = read-out: IC50 TDI, CYP2C9, 30 min pre-incubation with NADPH generating system
[12] = 30 min pre-incubation with NADPH generating system, read-out: IC50 TDI, CYP1A2
[13] = reversible inhibition, no 30 min NADPH pre-incubation, read-out: IC50 RI, CYP1A2
[14] = 30 min pre-incubation with NADPH generating system, read-out: IC50 TDI, CYP2E1
[15] = reversible inhibition, read-out: IC50 RI, CYP2E1
[16] = 30 min pre-incubation with NADPH generating system, read-out: IC50 TDI, CYP2B6
[17] = reversible inhibition, read-out: IC50 RI, CYP2B6
[18] = 30 min pre-incubation with NADPH generating system, read-out: IC50 TDI, CYP2A6
[19] = reversible inhibition, read-out: IC50 RI, CYP2A6
[20] = read-out: IC50 RI, CYP2C19, reversible inhibition
[21] = read-out: IC50 TDI, CYP2C19, 30 min pre-incubation with NADPH generating system

Substance	IC50 [1]	IC50 [2]	IC50 Shift, CYP2C9 [3]	IC50 [3, 10]	IC50 [3, 11]	IC50 [4, 12]	IC50 [4, 13]	IC50 [5, 14]	IC50 Shift, CYP2E1 [5]	IC50 [5, 15]	IC50 [6, 16]	IC50 [6, 17]	IC50 [7, 18]	IC50 [7, 19]	IC50 [8]	IC50 Shift, CYP2C19 [9]	IC50 [9, 20]	IC50 [9, 21]	IC50 ([9]; read-out: IC50 TDI, CYP2C19, 30 min pre-incubation with NADPH generating system, listed as gomisin A)
gomisin A	> 50 µM	> 50 µM	> 1.8 and 2.1	45.4 µM	22 µM	> 50 µM	37.4 µM	15.6 µM	>3.2	> 50 µM	> 50 µM	> 50 µM	> 50 µM	> 50 µM	> 50 µM	> 1.8 and 2.3	11.2 µM	≤ 5 µM and 4.8 µM	< 5 µM
gomisin B	20.7 µM	> 50 µM	time-independent inhibition	45.7 µM	> 50 µM	> 50 µM	> 50 µM	20.6 µM	>2.4	> 50 µM	> 50 µM	42.6 µM	> 50 µM	> 50 µM	> 50 µM	time-independent inhibition	> 50 µM	37.8 µM	–
